Laboratory results published in patent publication US20260384421A1, “NOVEL COMPOUNDS THAT CAN BE USED AS THERAPEUTIC AGENTS” (published 2026).

Key:
PANC-1 cells = test: alamarBlue proliferation assay with PANC-1 cells; conditions: read-out: Activity on PANC-1: IC50, DMEM medium, 10% FBS
JURKAT cells = test: alamarBlue proliferation assay with JURKAT cells; conditions: read-out: Activity on JURKAT (IC50), day 5
RVH-421 cells = test: alamarBlue proliferation assay with RVH-421 cells (glucose-free L-15 medium); conditions: read-out: Activity on RVH-421: IC50, Leibovitz's L-15 medium, 10% FBS, 0% CO2
TT cells = test: alamarBlue proliferation assay with TT cells; conditions: read-out: Activity on TT (IC50), day 5
Experimental: These hyperproliferative processes can be benign or malignant and include hyperplasia, neoplasia, cancer and pre-cancerous lesions, and metastases. […] To this end, according cells were seeded into 96-well plates (CORNING #3598) suitable for fluorescence assays at following initial cell numbers: 1000 cells per well for HPEK; 3000 cells per well for MDA-MB-231, 8000 cells per well for ZR-75-30, 1500 cells per well for HCC-1395, 1500 cells per well for HCC-1937, 3000 cells per well for T-47D, 1500 cells per well for JURKAT, 5000 cells per well for RPMI-8402, 9000 cells per well for LOUCY, 1500 cells per well for TANQUE, 9000 cells per well for REC-1, 1000 cells per well for HL-60, 1000 cells per well for NB-4, 9000 cells per well for TT, 2000 cells per well for HeLa, 2000 cells per well for 23132/87, 9000 cells per well for SW-948, 700 cells per well for HCT-116, 1500 cells per well for BHY, 700 cells per well for A-431, 1500 cells per well for HEP-G2, 500 cells per well for NCI-H460, 1000 cells per well for A-549, 1500 cells per well for PANC-1, 2500 cells per well for U-87 MG, 700 cells per well for A-375, 1500 cells per well for RVH-421, 2000 cells per well for SW-1353, 500 cells per well for C2C12, 500 cells per well for LL/2, and 3000 cells per well for CF21.T. In a volume of 90 μL per well of culture medium the cells were treated with compounds at indicated final concentrations by adding 10 μL per well of 10× compound working solutions from 1:100 pre-diluted 1000× compound DMSO stock-solutions in H2O (Water For Injection, WFI, Fisher Scientific, Gibco™ #A12873) or with the empty carrier DMSO (AppliChem, #A3672) at 0.1% v/v as control yielding a final volume of 100 μL per well. […] The readout was taken with a multi-well plate-reader (Tecan Spark®) in the fluorescence mode with applying a filter for excitation at 560 nm (band width 10 nm) and for emission at 590 nm (band width 10 nm). […]

| Compound | IC50 (PANC-1 cells) [µM] | IC50 (JURKAT cells) [µM] | IC50 (RVH-421 cells) [µM] | IC50 (TT cells) [µM] |
| --- | --- | --- | --- | --- |
| CN(C)C(=O)c1ccc(CN2CCN(C(=O)c3ccc(Oc4ccc(C5CCC6(CC5)OCCO6)cc4CO)cc3)CC2)cc1 | ≤ 5 | – | – | – |
| O=C(c1ccc(Oc2ccc(C3CCC4(CCCO4)CC3)cc2CO)cc1)N1CCN(Cc2ccccc2)CC1 (stereo not drawn) | – | ≤ 1 | ≤ 0.2 | – |
| O=C(c1ccc(Oc2ccc(C3CCC4(CC3)OCCO4)cc2CO)cc1)N1CCN(Cc2ccoc2)CC1 | – | – | ≤ 0.2 | – |
| O=C(c1ccc(Oc2ccc(C3CCC4(CC3)OCCO4)cc2CO)cc1)N1CC2CN(Cc3ccc(Cl)cc3)CC2C1 (stereo not drawn) | ≤ 5 | – | – | – |
| O=C(c1ccc(Oc2ccc(C3CCC4(CC3)OCCO4)cc2CO)cc1)N1CCN(Cc2cccs2)CC1 | – | – | ≤ 0.2 | ≤ 5 |
| O=C(c1ccc(Oc2ccc(C3CCC4(CC3)OCCO4)cc2CO)cc1)N1CCN(Cc2ccc(O)cc2)CC1 | – | ≤ 5 | ≤ 0.2 | – |
| COC(=O)c1ccc(CN2CCN(C(=O)c3ccc(Oc4ccc(C5CCC6(CC5)OCCO6)cc4CO)cc3)CC2)cc1 | ≤ 5 | – | – | – |
| O=C(c1ccc(Oc2ccc(C3CCC4(CC3)OCCO4)cc2CO)cc1)N1CCN(Cc2ccsc2)CC1 | – | – | ≤ 0.2 | ≤ 5 |
| O=C(c1ccc(Oc2ccc(C3CCC4(CC3)OCCO4)cc2CO)cc1)N1CCN(Cc2ccc([N+](=O)[O-])cc2)CC1 | – | ≤ 20 | ≤ 0.2 | – |
| Cn1c(CN2CCN(C(=O)c3ccc(Oc4ccc(C5CCC6(CC5)OCCO6)cc4CO)cc3)CC2)cc2ccccc21 | ≤ 0.2 | – | – | – |
| CS(=O)(=O)c1ccc(CN2CCN(C(=O)c3ccc(Oc4ccc(C5CCC6(CC5)OCCO6)cc4CO)cc3)CC2)cc1 | ≤ 1 | – | – | – |
| O=C(c1ccc(Oc2ccc(C3CCC4(CC3)OCCO4)cc2CO)cc1)N1CCN(Cc2ccc(Cl)cc2)CC1 | ≤ 0.2 | ≤ 20 | ≤ 0.2 | ≤ 5 |
| O=C(c1ccc(Oc2ccc(C3CCC4(CC3)OCCO4)cc2CO)cc1)N1CCN(Cc2ccc3ccccc3c2)CC1 | – | ≤ 20 | ≤ 0.2 | – |
| COc1ccc(CN2CCN(C(=O)c3ccc(Oc4ccc(C5CCC6(CC5)OCCO6)cc4CO)cc3)CC2)cn1 | ≤ 0.2 | – | – | – |
| O=C(c1ccc(Oc2ccc(C3CCC4(CC3)OCCO4)cc2CO)cc1)N1CCN(Cc2ccc(Cl)cn2)CC1 | ≤ 1 | – | – | – |
| O=C(c1ccc(Oc2ccc(C3CCC4(CC3)OCCO4)cc2CO)cc1)N1CCN(Cc2ccc3oc(=O)ccc3c2)CC1 | ≤ 0.2 | – | – | – |
| O=C(c1ccc(Oc2ccc(C3CCC4(CC3)OCCO4)cc2CO)cc1)N1CCCN(Cc2ccc(C(F)(F)F)cc2)CC1 | ≤ 20 | – | – | – |
| O=C(c1ccc(Oc2ccc(C3CCC4(CCCC4)CC3)cc2CO)cc1)N1CCN(Cc2ccccc2)CC1 | ≤ 20 | – | – | – |
